Results on four compounds are retold here after patent publication US7528141B2, “Use of cyclopenta[g]quinazoline derivatives for treating cancer” (BTG International Limited, priority 2001, dated 2009).

Amino acid sequences for entries named in this document (tags omitted). Residues count along the entry.
UniProt P07607, whole entry: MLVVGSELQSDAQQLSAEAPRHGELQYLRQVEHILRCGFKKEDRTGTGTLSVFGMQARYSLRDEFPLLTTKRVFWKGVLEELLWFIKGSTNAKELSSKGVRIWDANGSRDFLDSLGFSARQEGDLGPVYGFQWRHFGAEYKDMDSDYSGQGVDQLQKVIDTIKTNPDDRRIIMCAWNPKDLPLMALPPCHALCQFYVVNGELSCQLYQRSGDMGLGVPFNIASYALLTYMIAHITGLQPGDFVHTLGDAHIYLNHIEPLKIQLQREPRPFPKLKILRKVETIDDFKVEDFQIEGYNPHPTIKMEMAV
UniProt P35846, 25-232 limits assumed: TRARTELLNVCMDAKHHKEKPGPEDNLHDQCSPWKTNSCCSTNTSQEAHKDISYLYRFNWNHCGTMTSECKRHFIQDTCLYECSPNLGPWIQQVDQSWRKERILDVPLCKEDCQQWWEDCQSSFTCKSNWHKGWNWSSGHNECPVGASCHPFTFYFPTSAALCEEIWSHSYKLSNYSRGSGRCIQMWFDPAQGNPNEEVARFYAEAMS
UniProt P15328, 25-234 limits assumed: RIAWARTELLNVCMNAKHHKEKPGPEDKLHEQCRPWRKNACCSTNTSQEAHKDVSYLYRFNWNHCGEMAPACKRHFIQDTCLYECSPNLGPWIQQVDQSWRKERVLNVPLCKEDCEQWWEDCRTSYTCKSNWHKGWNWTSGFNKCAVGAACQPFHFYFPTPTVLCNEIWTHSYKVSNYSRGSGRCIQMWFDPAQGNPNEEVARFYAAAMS
UniProt P41438, whole entry: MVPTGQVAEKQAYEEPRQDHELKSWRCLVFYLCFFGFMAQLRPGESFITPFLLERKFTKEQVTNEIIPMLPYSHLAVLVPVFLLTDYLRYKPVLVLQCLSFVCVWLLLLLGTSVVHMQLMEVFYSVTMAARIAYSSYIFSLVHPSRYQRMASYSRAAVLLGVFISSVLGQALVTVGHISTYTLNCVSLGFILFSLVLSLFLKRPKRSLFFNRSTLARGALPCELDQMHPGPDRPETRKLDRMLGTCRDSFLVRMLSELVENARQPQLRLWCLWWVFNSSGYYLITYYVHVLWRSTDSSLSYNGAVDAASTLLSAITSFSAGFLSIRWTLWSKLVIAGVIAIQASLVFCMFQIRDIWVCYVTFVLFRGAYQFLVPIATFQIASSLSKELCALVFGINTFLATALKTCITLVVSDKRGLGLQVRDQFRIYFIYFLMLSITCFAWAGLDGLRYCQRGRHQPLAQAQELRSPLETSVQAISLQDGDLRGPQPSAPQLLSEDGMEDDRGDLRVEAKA
UniProt P41440, whole entry: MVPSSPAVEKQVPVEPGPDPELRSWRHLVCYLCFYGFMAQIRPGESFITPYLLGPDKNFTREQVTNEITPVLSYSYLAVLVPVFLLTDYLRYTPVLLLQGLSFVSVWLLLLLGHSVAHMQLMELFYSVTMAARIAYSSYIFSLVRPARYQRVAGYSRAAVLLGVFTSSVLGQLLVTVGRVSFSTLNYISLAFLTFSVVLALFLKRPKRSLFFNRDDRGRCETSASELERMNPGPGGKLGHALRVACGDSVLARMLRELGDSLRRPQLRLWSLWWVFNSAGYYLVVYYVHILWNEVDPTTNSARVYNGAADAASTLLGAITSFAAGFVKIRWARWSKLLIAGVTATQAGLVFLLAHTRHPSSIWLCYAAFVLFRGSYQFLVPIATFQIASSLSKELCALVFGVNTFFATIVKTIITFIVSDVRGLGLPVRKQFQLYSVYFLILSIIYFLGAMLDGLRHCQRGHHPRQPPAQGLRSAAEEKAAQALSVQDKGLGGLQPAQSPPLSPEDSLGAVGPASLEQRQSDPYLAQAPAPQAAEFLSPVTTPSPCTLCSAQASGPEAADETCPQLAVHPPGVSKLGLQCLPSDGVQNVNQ

Experiment [1] concerns the target thymidylate synthase (TS) from L1210 mouse leukaemia cells (Mus musculus, UniProt P07607). The experiment in a line: Inhibition of isolated L1210 thymidylate synthase. The settings on record: read-out: Inhibition of isolated L1210 TS, Kiapp. The class given is biochemical.
The target of experiment [2] is α-FR (Mus musculus, UniProt P35846). The experiment is described as follows: Binding to α-FR relative to folic acid, L1210-FBP cells. The settings on record: L1210-FBP mouse tumor cells overexpressing α-FR; folic acid = 1.
Experiment [3] addresses α-FR (Homo sapiens, UniProt P15328). The experiment is described as follows: Binding to α-FR relative to folic acid, A431-FBP cells. To be noted: human A431 cells transfected with α-FR; folic acid = 1.
In experiment [4] the target is reduced-folate carrier (RFC) (Mus musculus, UniProt P41438). The experiment in a line: Inhibition of 3H MTX uptake in L1210 cells. To be noted: read-out: Inhibition of 3H MTX uptake Ki, L1210; mouse L1210 tumor cells; high Ki = low affinity for RFC. The class given is cell-based.
The target of experiment [5] is reduced-folate carrier (RFC) (Homo sapiens, UniProt P41440). The experiment is described as follows: Inhibition of 3H MTX uptake in W1L2 cells. The class given is cell-based. To be noted: read-out: Inhibition of 3H MTX uptake Ki, W1L2; human lymphoblastoid W1L2 cells; high Ki = low affinity for RFC.

Where “and” joins values, the source holds several entries; their conditions need not be identical. Equal entries are not always repeated.

As usually defined, the IC50 is the point on the concentration scale where inhibition reaches its midpoint. Higher therefore signals a need for much substance. As to `C#CCN(c1ccc(C(=O)N[C@@H](CCC(=O)O)C(=O)O)cc1)C1CCc2cc3nc(N)[nH]c(=O)c3cc21` (stereo partly drawn), the Ki in experiment [1] came to 0.75 nM. Also, the “Inverse relative affinity for α-FR, L1210-FBP” value on α-FR [2] is recorded as 0.73 ± 0.035. Also, the “Inverse relative affinity for α-FR, A431-FBP” value at α-FR [3] turned out to be 0.57 ± 0.059. Further, the IC50 in the experiment with A431 cells was 23000 nM; in the experiment on A431-FBP cells it was 20000 nM; in the experiment with KB cells it was 26000 nM and 15000 nM.
On to `C#CCN(c1ccc(C(=O)N[C@@H](CCC(=O)O)C(=O)O)cc1)[C@H]1CCc2cc3nc(C)[nH]c(=O)c3cc21`, for which the Ki was 9100 nM in experiment [4] and 4900 nM in experiment [5]. Moreover, the IC50 came out at 770 nM with A431 cells, 360 nM in the experiment with A431-FBP cells and 210 nM in the experiment with KB cells.
Regarding `C#CCN(Cc1cc2c(=O)[nH]c(C)nc2cc1C)c1ccc(C(=O)N[C@@H](CCC(=O)N[C@H](CCC(=O)O)C(=O)O)C(=O)O)cc1`, the Ki in experiment [1] came to 2 nM; in experiment [4], 269000 nM; in experiment [5], 83000 nM. Moreover, the “Inverse relative affinity for α-FR, L1210-FBP” value on α-FR [2] turned out to be 0.31 ± 0.0089. Besides, the IC50 with A431 cells stood at 1100 nM; with A431-FBP cells, 470 nM; in the experiment with KB cells, 210 nM.
On to `C#CCN(Cc1cc2c(=O)[nH]c(C)nc2cc1C)c1ccc(C(=O)N[C@@H](CCc2nnn[nH]2)C(=O)O)c(F)c1`, for which the Ki in experiment [4] stood at 2400 nM; in experiment [5] it was 760 nM. This compound had an IC50 in the experiment on KB cells of 10 nM.
